Experimental data reported in patent US20250064789A1, “KETOAMIDE DERIVATIVES AND PHARMACEUTICAL USES THEREOF” (priority 2022, published 2025).

Chains of the proteins cited; added tags and fusions are not shown. Lines headed by an entry give the natural chain unless they say otherwise; changes in a name come on top.
UniProt Q12809: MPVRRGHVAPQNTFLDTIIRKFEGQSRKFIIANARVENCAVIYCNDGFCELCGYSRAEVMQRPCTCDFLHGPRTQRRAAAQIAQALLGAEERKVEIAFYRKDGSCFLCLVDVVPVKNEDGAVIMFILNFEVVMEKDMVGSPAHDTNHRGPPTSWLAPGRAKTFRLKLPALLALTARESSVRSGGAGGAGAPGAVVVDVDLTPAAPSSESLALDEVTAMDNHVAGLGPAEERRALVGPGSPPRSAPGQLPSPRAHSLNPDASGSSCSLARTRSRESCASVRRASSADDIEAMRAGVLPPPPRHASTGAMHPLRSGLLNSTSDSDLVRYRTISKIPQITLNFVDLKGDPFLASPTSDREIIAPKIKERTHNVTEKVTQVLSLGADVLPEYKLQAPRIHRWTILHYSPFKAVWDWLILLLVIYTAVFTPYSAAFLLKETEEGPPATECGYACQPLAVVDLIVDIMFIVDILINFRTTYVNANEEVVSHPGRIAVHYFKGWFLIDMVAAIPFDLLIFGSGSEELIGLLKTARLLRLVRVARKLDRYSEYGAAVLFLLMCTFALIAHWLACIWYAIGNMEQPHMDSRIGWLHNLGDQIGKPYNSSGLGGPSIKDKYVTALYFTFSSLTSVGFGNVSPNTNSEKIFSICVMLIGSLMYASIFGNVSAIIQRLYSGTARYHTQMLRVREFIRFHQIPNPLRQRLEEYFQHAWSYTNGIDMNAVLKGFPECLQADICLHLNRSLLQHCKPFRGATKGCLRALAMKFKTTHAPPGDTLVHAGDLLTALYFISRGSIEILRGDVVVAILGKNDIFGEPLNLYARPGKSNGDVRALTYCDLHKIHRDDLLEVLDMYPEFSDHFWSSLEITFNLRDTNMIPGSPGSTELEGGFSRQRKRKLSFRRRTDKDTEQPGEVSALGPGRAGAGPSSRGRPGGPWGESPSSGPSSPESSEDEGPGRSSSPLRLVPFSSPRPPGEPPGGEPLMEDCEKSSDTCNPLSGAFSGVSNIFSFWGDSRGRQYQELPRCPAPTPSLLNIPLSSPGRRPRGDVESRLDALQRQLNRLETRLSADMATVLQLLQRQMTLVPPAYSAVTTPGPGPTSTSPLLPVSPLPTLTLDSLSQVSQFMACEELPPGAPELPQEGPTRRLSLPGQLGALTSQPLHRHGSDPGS

Target: hERG potassium ion channels (Homo sapiens (Human), UniProt Q12809)
Test: hERG potassium current, whole cell patch clamp in HEK-293-hERG cells
Settings: 0.1 μM

## COc1cc(N)c(Cl)cc1C(=O)NC1CCN(CCCOc2ccc(F)cc2)CC1OC (stereo not shown) [Cisapride]
  The inhibition rate on hERG current: 86.36%
